The test addresses RhoGDI2 (Rho GDP dissociation inhibitor 2), endogenous (human (endogenous in RT4, T24, MDA-MB-231, Jurkat, OVCAR-4)) (UniProt P52566). The test is described as follows: co-IP.

In the case of “Rac1, endogenous (from UniProt P63000 1-192) (natural protein)”, the percent of total GTPase bound to RhoGDI2 is 38%.

For the origin of these results see paper PMC4369172.
